Values of other authors in article PMC5594411 (Biomacromolecules, 2016).

In the case of T-DM1, the “DM1 molecules per antibody” value is given as 3.5 DM1 molecules/antibody.
